The numbers were not newly measured in US6979727B2, “Recombinant conglutinin and producing method thereof” (Fuso Pharmaceutical Industries, Ltd., priority 1995, dated 2005), which cites them from elsewhere.

In this data set the target is T1, Native Conglutinin (Bos taurus, UniProt P23805, K210S).
T1 sequence (P23805 21-371 K210S): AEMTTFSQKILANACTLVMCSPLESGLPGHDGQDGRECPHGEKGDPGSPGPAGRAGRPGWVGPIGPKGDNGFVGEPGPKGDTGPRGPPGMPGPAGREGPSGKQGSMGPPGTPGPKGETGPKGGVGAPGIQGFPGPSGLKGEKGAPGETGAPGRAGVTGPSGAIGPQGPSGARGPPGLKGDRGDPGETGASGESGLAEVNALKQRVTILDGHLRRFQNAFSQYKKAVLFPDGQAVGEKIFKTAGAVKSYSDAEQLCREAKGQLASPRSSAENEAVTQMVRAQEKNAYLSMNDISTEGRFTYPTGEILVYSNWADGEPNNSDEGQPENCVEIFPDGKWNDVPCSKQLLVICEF
The conditions noted are these: cited from earlier work.

Setting [1] is: Lu, J. et al., Biochem. J., vol. 284, pp. 795-802 (1992), read-out: I50, sugar concentration to halve binding activity with mannan.
[2] abbreviates: read-out: I50, sugar concentration to halve binding activity with mannan, Lu, J. et al., Biochem. J., vol. 284, pp. 795-802 (1992).

Read-outs that look alike come from different tables or passages of the source.

As to `OC[C@H]1O[C@H](O[C@H]2[C@H](O)[C@@H](O)[C@H](O)O[C@@H]2CO)[C@H](O)[C@@H](O)[C@@H]1O` [Maltose], under setting [1], the IC50 is 49 mM.
For `O=C[C@@H](O)[C@@H](O)[C@H](O)[C@H](O)CO` [D-Mannose], the IC50 under setting [2] was 19.5 mM.
`CC(=O)N[C@H]1C(O)O[C@H](CO)[C@@H](O)[C@@H]1O` (stereo partly drawn) [N-Acetyl-D-Glucosamine]: the IC50 under setting [1] was 1.4 mM.
On to `O=C[C@H](O)[C@@H](O)[C@@H](O)[C@H](O)CO` [Galactose], for which the IC50 under setting [2] is > 100 mM.
As to `C[C@H](O)[C@@H](O)[C@@H](O)[C@H](O)C=O` [Fucose], the IC50 under setting [1] is 41.5 mM.
